Test system: phosphorylation of EML4-ALK
Assay: phospho-ALK immunoblotting in Ba/F3 cells
Format: cell-based
Details: EML4-ALK harboring any of the four resistant mutations versus wild type; 1 hour

SMILES: C[C@@H](Oc1cc(-c2cnn(C3CCNCC3)c2)cnc1N)c1c(Cl)ccc(F)c1Cl [crizotinib]
- suppression of EML4-ALK phosphorylation: less effective

Reference: paper PMC3385512 (Science Translational Medicine, 2012)
